## Measured affinities in a library of Ab-95 light chain variants

Binding partner: SARS-CoV-2 spike HR2 peptide, sequence PDVDLGDISGINAS.

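Variants in AAYL52 differ from the parent at up to three CDR positions; double and triple changes were sampled at random. AlphaSeq pools MATa yeast showing the antibodies with MATalpha yeast showing the peptide. After mating in shaken culture at 30 °C for 16 h, diploids were selected and their barcode pairs sequenced. Read counts were normalised to the haploid input and turned into Kd by a linear fit to BCL2-family pairs of known affinity, for each replicate. Mating was done three times.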

Ab-95 is the parent antibody, in scFv form: VH, then three GGGGS repeats, then VL. The heavy chain is unchanged in all variants.
VH: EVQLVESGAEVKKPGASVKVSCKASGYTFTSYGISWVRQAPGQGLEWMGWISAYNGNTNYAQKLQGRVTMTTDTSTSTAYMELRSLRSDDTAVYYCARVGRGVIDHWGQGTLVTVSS
VL: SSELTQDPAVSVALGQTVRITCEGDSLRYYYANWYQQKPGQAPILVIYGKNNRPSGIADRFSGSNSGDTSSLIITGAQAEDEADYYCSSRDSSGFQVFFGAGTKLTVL

Changes read parent residue, position, new residue, counted from the first residue of the VL shown. Affinities are written as log10 Kd with Kd in nM; a lower number is a better binder. "n.d." marks a missing value. The strain was present, yet no cells mated with the target were sequenced in that replicate, which points to weak or no binding.

changes,"log10 Kd, replicates",signal with controls
N51Q/Q96L,2.56 / 2.63 / 2.62,4/9 (3.83)
E23W/S89E/G94Y,2.73 / 3.71 / n.d.,5/9 (4.27)
L27M/G49C/S89T,n.d. / n.d. / n.d.,1/9 (3.88)
S26D/G49T/R53G,4.64 / n.d. / n.d.,2/9 (4.43)
E23L/G24M/R90A,n.d. / n.d. / 3.81,3/9 (3.46)
R28G/Y31N/S92N,1.69 / 1.38 / 1.02,4/9 (3.66)
K50N/N52C/F95M,n.d. / n.d. / n.d.,0/9
A32R/G49K/R90M,3.95 / n.d. / 3.79,3/9 (4.22)
N51R/S88F/R90F,4.55 / 4.97 / n.d.,3/9 (3.14)
L27H/F95W/Q96T,n.d. / n.d. / n.d.,2/9 (3.91)
Y31M/S55I/F95D,3.93 / 3.58 / 3.16,2/9 (3.83)
K50L/P54V/Q96N,4.23 / 4.02 / 4.15,3/9 (4.53)
A32N/S92D/Q96T,n.d. / 3.75 / n.d.,3/9 (3.12)
G49S/R90E/F95M,2.69 / n.d. / n.d.,1/9 (3.12)
R28C/Y29A/R90D,4.64 / n.d. / 4.06,2/9 (3.63)
R28T/R90K/Q96K,3.23 / 2.70 / 2.36,5/9 (4.05)
L27M/R90P/G94A,2.88 / n.d. / 2.37,1/9 (3.90)
E23I/L27P/K50F,n.d. / n.d. / n.d.,1/9 (3.82)
R90C/S92Y/F98S,4.19 / 2.84 / n.d.,0/9
Y30W/K50H/S93R,3.15 / 3.09 / 2.44,4/9 (4.27)
L27M/Q96N,1.99 / 2.51 / 1.75,4/9 (3.35)
L27G/Y29G/G94K,3.11 / 3.13 / 2.39,0/9
D25I/N33S/G49N,n.d. / 3.87 / n.d.,1/9 (3.29)
N33K/P54V/D91C,n.d. / 5.37 / n.d.,1/9 (4.21)
L27D/N51Y/S92H,3.57 / 3.46 / n.d.,4/9 (4.26)
Y31G/N52I/S88Q,2.54 / 1.83 / 2.02,2/9 (5.00)
S26H/S93M/F95A,2.99 / 3.17 / 4.09,6/9 (4.03)
D25F/Y31A/N51P,5.23 / 4.42 / 4.19,0/9
R28H/K50E/R53Q,3.40 / 3.25 / 3.65,1/9 (4.23)
G24A/Q96A,3.30 / 3.57 / 4.52,4/9 (4.41)
A32M/N52H/Q96I,n.d. / n.d. / n.d.,2/9 (4.06)
E23R/S93Y/F95T,2.29 / 2.26 / 1.71,2/9 (4.17)
D91K/F95C/V97L,n.d. / 3.09 / 3.44,4/9 (3.75)

Parent in this assay: reference entry 2.31, copy in this library 2.25. Background: pairings of library AAYL52 with three empty control strains gave a value in 28% of cases (median 3.91, 5th percentile 2.90). Values in that range, when seen in few replicates, are hard to tell from nonspecific mating. Also given: how often the same scFv was detected with the empty control strains, with their mean in brackets.

Values reported by Engelhart et al. 2022, doi:10.1038/s41597-022-01779-4 (FLAb copy).